# Reference: PubChem BioAssay AID2546 (National Center for Advancing Translational Sciences (NCATS), 2010)
# This is a selection; strong and weak results do not stand in their true shares. Records with an inconclusive call do not appear. Entries that show only a call come without a potency. The source made the active and inactive calls. The call rests on the fitted dose curve; in most records, active means well fitted inhibition curve with a large enough effect; inconclusive means small, poorly fitted or top-dose-only effect, or effect the other way; inactive means flat fitted curve, though single readings scatter.
# Assay: VP16 counterscreen qHTS for inhibitors of ROR gamma transcriptional activity;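 further: Gal4-VP16 expression switched on by copper sulfate through the metallothionein promoter; nearly all actives have a fitted effect of over 50% in size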
# Details: Drosophila S2 Gal4-VP16 UAS-luciferase, luminescence, 20 h; series mostly up to 53.6 µM
# Potency means the concentration at half of the fitted maximal effect.
Compound,Potency,"activity, negative = inhibition"
Cc1cccc(OCC(=O)OC2CN3CCC2CC3)c1 (centres undefined),inactive,–
O=[As](O)(c1cccc(O)c1)c1cccc(O)c1,inactive,–
O=C(OC1CN2CCC1CC2)c1ccc(Cl)cc1 (centres undefined),inactive,–
O=[As](O)(O)c1cccnc1,inactive,–
COc1cc(C(=O)NCC2(N3CCOCC3)CCCCC2)cc(Cl)c1OC(C)C,inactive,–
CS(=O)(=O)c1ccc(Cl)c(NC(=O)COC(=O)C(O)(c2ccccc2)c2ccccc2)c1,inactive,–
COc1cc(C2NCCC3(OCCO3)C2(C)C)cc(OC)c1OC (centres undefined),inactive,–
CCOP(=O)(Nc1cccc2ccccc12)OCC,inactive,–
Nc1cccc2c([As](=O)(O)O)cccc12,inactive,–
CCCOP(=S)(Nc1nc(N)cc(=O)[nH]1)OCCC,inactive,–
O=C(O)COc1ccc([As](=O)(O)O)cc1[N+](=O)[O-],inactive,–
Nc1ccccc1[As](=O)(O)c1ccccc1,inactive,–
CCOP1(=S)c2c(C)nn(CCC#N)c2N=C(c2ccccc2F)N1C (centres undefined),inactive,–
O=P(Nc1nccs1)(Oc1ccccc1)Oc1ccccc1,inactive,–
O=P(Nc1nccs1)(c1ccccc1)c1nc2ccccc2s1 (centres undefined),active: 7.94 µM,–
CS(=O)(=O)c1cc([N+](=O)[O-])c2no[n+]([O-])c2c1,active: 15.8 µM,–
CCOP1(=S)c2c(C)nn(CCC#N)c2N=C(c2ccc(F)cc2)N1C (centres undefined),inactive,–
CN(C(=O)Cc1ccccc1)[C@@H]1CC[C@]2(CCCO2)C[C@H]1N1CCCC1,inactive,–
O=[N+]([O-])c1ccc2c(c1)nnn2O,inactive,–
NC(=O)Nc1ccc([As](=O)(O)O)cc1,inactive,–
CN(C)C1(CNC(=O)c2ccc(S(C)(=O)=O)cc2)CCCCC1,inactive,–
O=C(/C=C/c1ccccc1)OC1CN2CCC1CC2 (centres undefined),inactive,–
Cc1nn(-c2ccccc2)c2c1P(=O)(N1CCOCC1)N(C)C(c1ccccc1)=N2 (centres undefined),inactive,–
Cc1ccc(C(=O)OC2CN3CCC2CC3)cc1 (centres undefined),inactive,–
Nc1cccc([As](=O)(O)c2ccccc2)c1,inactive,–
O=[As](O)(c1cccs1)c1cccs1,inactive,–

Compound,Potency,"activity, negative = inhibition"
Cc1ccc(OCC(=O)OC2CN3CCC2CC3)cc1 (centres undefined),inactive,–
O=P1(Nc2ccc(Br)cn2)COc2ccccc2OC1,inactive,–
Clc1n[nH]nc1-c1nn[nH][15n]1,inactive,–
CCC1=CC2Cc3nc4ccc(Cl)cc4c(N)c3C(C1)C2 (centres undefined),inactive,–
O=P1(Nc2ccccn2)COc2ccccc2OC1,inactive,–
CCOP(=O)(NC(=NC(C)c1ccccc1)NC(C)c1ccccc1)OCC (centres undefined),inactive,–
CCOP(=O)(Nc1ccc(C)cn1)OCC,inactive,–
CN(C(=O)Cc1ccc(Cl)c(Cl)c1)[C@@H]1CCCC[C@H]1N1CCCC1,inactive,–
CC(C)/C=N\N=C(\N)N[N+](=O)[O-],inactive,–
O=[As](O)(c1ccccc1Br)c1ccccc1Br,inactive,–
O=C(COc1ccccc1)OC1CN2CCC1CC2 (centres undefined),inactive,–
O=C(Nc1ccncc1[N+](=O)[O-])c1ccc([N+](=O)[O-])cc1[N+](=O)[O-],inactive,–
COP1(=S)c2c(C)nn(CCC#N)c2N=C(c2ccc(F)cc2)N1C (centres undefined),inactive,–
O=C(OC1CN2CCC1CC2)c1cccc([N+](=O)[O-])c1 (centres undefined),inactive,–
CCOC(=O)c1ccc(NC(=O)C(C)(CCl)SC)cc1 (centres undefined),inactive,–
CCCCOc1ccc(C(=O)NCC2(N3CCCCC3)CCCCC2)cc1OC,inactive,–
CCOC(=O)Nc1ccc([As](=O)(O)O)c(O)c1,inactive,–
Cc1cc(SC(NC=O)C(Cl)(Cl)Cl)ncn1 (centres undefined),inactive,–
O=P(Nc1ccccn1)(c1cccc2ccccc12)c1cccc2ccccc12,–,inactive: 1.88% [at 10 µM]
CN(N=O)C(=N)N[N+](=O)[O-],inactive,–
O=[N+]([O-])c1ccc(Nc2ccc(Oc3ccc([N+](=O)[O-])cc3[N+](=O)[O-])cc2)c([N+](=O)[O-])c1,inactive,–
CCOC(=O)Nc1cccc([As](=O)(O)O)c1,inactive,–
Cc1ccc(OP(=O)(Nc2ccc([N+](=O)[O-])cn2)Oc2ccc(C)cc2)cc1,inactive,–
Cc1ccc2nc3c(c(C)c2c1)CC(C(Cl)Cl)S3 (centres undefined),inactive,–
C[As](=O)(O)c1cccc(C(=O)O)c1,inactive,–
CC(C)NC(=O)NP(=O)(Oc1ccccc1)Oc1ccccc1,inactive,–

Compound,Potency,"activity, negative = inhibition"
CCN(CC)C(=S)SC(NC=O)C(Cl)(Cl)Cl (centres undefined),inactive,–
O=[N+]([O-])c1cc([N+](=O)[O-])c(-c2ccn[nH]2)s1,active: 12.6 µM,–
ClCCSc1nnc(-c2cccnc2)o1,inactive,–
CC(C)c1ccc(OP(=O)(Nc2ccccn2)Oc2ccccc2F)cc1 (centres undefined),inactive,–
COc1ccc2nc(NP(=O)(c3ccccc3)c3ccccc3)sc2c1,inactive,–
COc1cc(I)ccc1[As](=O)(O)O,inactive,–
Cc1c2c(nc3ccccc13)SC(C(Cl)Cl)C2 (centres undefined),inactive,–
O=C(OC1CN2CCC1CC2)C12CC3CC(CC(C3)C1)C2 (centres undefined),inactive,–
Cc1cc(=O)[nH]c(N[N+](=O)[O-])n1,inactive,–
COc1ccc(N/C(=N/P(=O)(N2CCOCC2)N2CCOCC2)N2CCOCC2)cc1,inactive,–
CN1CCCC(OC(=O)C(c2ccccc2)c2ccccc2)C1 (centres undefined),inactive,–
Clc1ccc(Cl)c(NC2=NCC(CBr)S2)c1 (centres undefined),inactive,–
COc1ccccc1OP(=O)(Nc1ccc(C)cn1)Oc1ccccc1OC,inactive,–
Cc1ccc(OP(=O)(Nc2nccs2)Oc2ccc(C)cc2)cc1,inactive,–
Cc1ccc(N/C(=N/P(=O)(N2CCOCC2)N2CCOCC2)N2CCOCC2)cc1,inactive,–
NC(=O)c1cc([N+](=O)[O-])cc([N+](=O)[O-])c1N,inactive,–
Oc1ccccc1CNc1ccccn1,inactive,–
Cc1c2non([O-])c-2c(C)[n+](=O)[n+]1[O-],active: 28.2 µM,–
Nc1cc(N)c2nonc2c1[N+](=O)[O-],inactive,–
CC(C)CC(=O)NC(Sc1ccc(Cl)cc1)C(Cl)(Cl)Cl (centres undefined),inactive,–
CCOP(=O)(Nc1ccccc1)OCC,inactive,–
CN(C(=O)Cc1ccc(Cl)c(Cl)c1)[C@H]1CCCC[C@@H]1N1CCCC1,inactive,–
Cc1ccc(NP(=O)(Oc2ccccc2F)Oc2ccccc2F)nc1,inactive,–
O=P(Nc1nc2ccc(Cl)cc2s1)(c1ccccc1)c1ccccc1,inactive,–
CC(=O)Nc1ccc([As](=O)(O)O)cc1,inactive,–
O=C(O)c1ccccc1[As](=O)(O)O,inactive,–

Compound,Potency,"activity, negative = inhibition"
Nc1cccc2ccc([As](=O)(O)O)cc12,inactive,–
CCN(N=Nc1nonc1N)c1nonc1N,inactive,–
O=C(Nc1cc([As](=O)(O)O)ccc1O)c1ccccc1,inactive,–
O=C(O)CNc1ccc([As](=O)(O)O)cc1,inactive,–
O=[N+]([O-])c1cccc(NC2=NCC(CBr)S2)c1 (centres undefined),inactive,–
O=[N+]([O-])c1ncn(CCn2ncnc2[N+](=O)[O-])n1,inactive,–
CC(C)(C)C(=O)NC(Sc1ccncn1)C(Cl)(Cl)Cl (centres undefined),inactive,–
Cc1ccc(NP(=O)(Oc2ccccc2)Oc2ccccc2)nc1,inactive,–
O=[N+]([O-])c1cc([N+](=O)[O-])c(CCNc2ccccc2)c([N+](=O)[O-])c1,inactive,–
CC(=O)N1C2C3N(C(C)=O)C1C1N(C(C)=O)C(C(N1C(C)=O)N3C(C)=O)N2C(C)=O,inactive,–
O=[N+]([O-])c1cccc2n[nH]nc12,inactive,–
COc1ccc(C2=NCC(CBr)S2)cc1 (centres undefined),inactive,–
CC(=O)C1=CCCC2CCC1N2 (centres undefined),inactive,–
CC1CCN(C(=O)Oc2c(Cl)cc(Cl)c3cccnc23)CC1,inactive,–
CC(C)=N/N=C(\N)N[N+](=O)[O-],inactive,–
CCN(/C(=N/P(=O)(N1CCOCC1)N1CCOCC1)N1CCOCC1)c1ccc(OC)cc1,inactive,–
Nc1ccc([As](=O)(O)c2ccc(N)cc2)cc1,inactive,–
c1nnnn1CCn1cnnn1,inactive,–
O=P(Nc1nccs1)(c1ccccc1)c1ccccc1,inactive,–
CC(C)C(=O)NC(Sc1ccccc1)C(Cl)(Cl)Cl (centres undefined),inactive,–
CN(C(=O)Cc1ccccc1)[C@H]1CC[C@@]2(CCCO2)C[C@@H]1N1CCCC1,inactive,–
O=P(Nc1nc2ccccc2s1)(c1ccccc1)c1ccccc1,inactive,–
C[C@H]1OP(=O)(Oc2ccccc2)[C@H](O)[C@H](O)[C@H]1N=[N+]=[N-] (some centres undefined),inactive,–
CN(C)C1(CNC(=O)c2ccc(Cl)c(S(N)(=O)=O)c2)CCCCC1,inactive,–
O=P(Nc1ccccn1)(c1ccc(Br)cc1)c1ccc(Br)cc1,–,inactive: 7.35% [at 10 µM]
O=C(OC1CN2CCC1CC2)c1cccc(Cl)c1 (centres undefined),inactive,–

Compound,Potency,"activity, negative = inhibition"
C(Cc1nn[nH]n1)Cc1nn[nH]n1,inactive,–
Nc1ccc([As](=O)(O)c2ccc([N+](=O)[O-])cc2)cc1,inactive,–
O=[As](O)(c1ccccc1)c1ccc(O)cc1,inactive,–
O=[N+]([O-])c1ncn(CCn2cnc([N+](=O)[O-])n2)n1,inactive,–
O=[N+]([O-])c1ccc(O)c(/C=N/Nc2ccc([N+](=O)[O-])cc2[N+](=O)[O-])c1,active: 3.55 µM,–
c1ccc(-c2nn[nH]n2)c(-c2nn[nH]n2)c1,inactive,–
CCOC(=O)NC(Sc1ccccc1)C(Cl)(Cl)Cl (centres undefined),inactive,–
Cc1ccc(NP(=O)(Oc2cccc(C)c2)Oc2cccc(C)c2)nc1,inactive,–
O=C(NC1CCS(=O)(=O)C1)NP(=S)(Oc1ccccc1)Oc1ccccc1 (centres undefined),inactive,–
CCNC(=S)/N=C(\N)N[N+](=O)[O-],–,inactive: -9.11% [at 10 µM]
Cc1ccccc1OP(=O)(Nc1ccccn1)Oc1ccccc1C,inactive,–
O=c1c2cc([N+](=O)[O-])ccc2[nH]c2c([N+](=O)[O-])cc([N+](=O)[O-])cc12,active: 0.141 µM,–
CN(C)C(=O)Oc1noc2ccccc12,inactive,–
O=C(OC1CN2CCC1CC2)c1ccccc1 (centres undefined),inactive,–
CCC(=O)N1C2C3N(C(=O)CC)C1C1N(C(=O)CC)C(C(N1C(=O)CC)N3C(=O)CC)N2C(=O)CC,inactive,–
COC(=O)c1cc2c(s1)N=C(c1ccccc1)N(C)P2(=O)N1CCOCC1 (centres undefined),inactive,–
Cc1ccc(OP(=O)(Nc2ccccn2)Oc2ccc(C)cc2)cc1,inactive,–
CC(=O)NC(SC(=S)N(CC(C)C)CC(C)C)C(Cl)(Cl)Cl (centres undefined),inactive,–
CC(C)(C)C(=O)NC(Sc1ccccc1)C(Cl)(Cl)Cl (centres undefined),inactive,–
O=P1(Nc2nc3ccc(Cl)cc3s2)COc2ccccc2O1 (centres undefined),inactive,–
CC(=O)Nc1ccc([As](=O)(O)O)c(O)c1,inactive,–
CC(=O)Nc1ccc(Oc2c([N+](=O)[O-])cc([N+](=O)[O-])cc2[N+](=O)[O-])cc1,inactive,–
C[C@H]1OP(=O)(Oc2ccccc2)C[C@@H]2O[C@@H]21 (some centres undefined),inactive,–
C[C@@H]1C=CCP(=O)(Oc2ccccc2)O1 (some centres undefined),inactive,–
CC(=O)c1ccc(N2CC2c2ccncc2)cc1 (centres undefined),inactive,–
